Our source for the decrease of MMP-14 activity (SensoLyte 520 MMP-14 assay, 5-FAM/QXL520 FRET peptide substrate; catalytic domain pre-incubated overnight values is paper PMC8507859.

The target in this assay is recombinant catalytic domain of human MMP-14 (amino acids 89-265) (human) (UniProt P50281).

As for lumcorin (peptide), the decrease of MMP-14 activity (SensoLyte 520 MMP-14 assay, 5-FAM/QXL520 FRET peptide substrate; catalytic domain pre-incubated overnight at 37 °C with 100 μM peptide) came out at 92%.

For L9Mc (peptide), the decrease of MMP-14 activity (SensoLyte 520 MMP-14 assay, 5-FAM/QXL520 FRET peptide substrate; catalytic domain pre-incubated overnight at 37 °C with 100 μM peptide) turned out to be 33%.
